## CycPeptMPDB entries from one study

Values of Naylor et al. 2018, doi:10.1021/acs.jmedchem.8b01259, as listed in CycPeptMPDB.

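Lipid, pH, incubation time, direction and concentration are not recorded in the data file. The list need not hold all peptides of the study. Entries at the database's floor value (log10 P of -10) are not listed.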

PAMPA is the parallel artificial membrane permeability assay, which has no cells and reads passive diffusion.
RRCK is a low-efflux MDCK cell line.
Permeability is given as log10 of P in cm/s; higher (less negative) is more permeable.

SMILES,PAMPA (log10 cm/s),RRCK (log10 cm/s)
CC(C)C[C@@H]1NC(=O)[C@H](Cc2ccccc2)N(C)C(=O)[C@H]2CCCN2C(=O)[C@H](CC(C)C)NC(=O)[C@H](CC2CCCCC2)N(C)C(=O)[C@@H](CC(C)C)N(C)C1=O,-7.55,-5.79
CCC[C@@H]1C(=O)N(C)[C@@H](CC2CCCCC2)C(=O)N[C@@H](CC2CCCCC2)C(=O)N2CCC[C@@H]2C(=O)N(C)[C@@H](Cc2ccc(O)cc2)C(=O)N[C@@H](CC(C)C)C(=O)N1C,-7.18,-6.22
CC[C@H]1NC(=O)[C@H](CC(C)C)NC(=O)[C@H](Cc2ccccc2)NC(=O)[C@H]2CCCN2C(=O)[C@H](CC2CCCCC2)NC(=O)[C@H](CC2CCCCC2)NC1=O,-5.35,-5.36
CC[C@@H]1C(=O)N(C)[C@@H](CC(C)C)C(=O)N[C@@H](CC(C)C)C(=O)N2CCC[C@@H]2C(=O)N(C)[C@@H](Cc2ccc(O)cc2)C(=O)N[C@@H](CC(C)C)C(=O)N1C,-5.09,-4.79
CC(C)C[C@@H]1NC(=O)[C@H](CC2CCCCC2)N(C)C(=O)[C@H]2CCCN2C(=O)[C@H](CC(C)C)NC(=O)[C@H](CC(C)C)N(C)C(=O)[C@@H](CC(C)C)N(C)C1=O,-7.02,-5.61
CC(C)C[C@@H]1NC(=O)[C@H](Cc2ccccc2)NC(=O)[C@H]2CCCN2C(=O)[C@H](CC2CCCCC2)NC(=O)[C@H](CC2CCCCC2)NC(=O)[C@@H](C)NC1=O,-5.34,-5.39
CC[C@H]1NC(=O)[C@H](CC(C)C)NC(=O)[C@H](Cc2ccc(O)cc2)NC(=O)[C@H]2CCCN2C(=O)[C@H](CC2CCCCC2)NC(=O)[C@H](CC2CCCCC2)NC1=O,-5.09,-5.84
CC(C)C[C@@H]1NC(=O)[C@H](C)N(C)C(=O)[C@H]2CCCN2C(=O)[C@H](CC(C)C)NC(=O)[C@H](C)N(C)C(=O)[C@@H](C)N(C)C1=O,-5.95,-5.31
CC[C@H]1NC(=O)[C@H](CC(C)C)NC(=O)[C@H](Cc2ccc(O)cc2)NC(=O)[C@H]2CCCN2C(=O)[C@H](CC(C)C)NC(=O)[C@H](CC(C)C)NC1=O,-6.26,-6.04